## Apparent affinities of Ab-95 variants for a coronavirus HR2 peptide

From the AlphaSeq antibody data of Engelhart et al. 2022 (doi:10.1038/s41597-022-01779-4), copy in the FLAb collection.

Target: peptide PDVDLGDISGINAS, taken from heptad repeat 2 (HR2) of SARS-CoV-2 spike.

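The parent was found by panning a naive human phage display library on the peptide. Variants in AAYL52 differ from the parent at up to three CDR positions; double and triple changes were sampled at random. The scFvs were displayed on barcoded MATa yeast, the peptide on MATalpha yeast. Binding brings cells together so that they mate, and sequencing counts the barcode pairs among the diploids. Scores were corrected for input abundance and mapped to Kd with protein pairs of known affinity run in the same pool. The assay was run in three technical replicates.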

The variants keep the heavy chain, the linker and the frameworks of Ab-95 (scFv order VH, three GGGGS repeats, VL).
VH: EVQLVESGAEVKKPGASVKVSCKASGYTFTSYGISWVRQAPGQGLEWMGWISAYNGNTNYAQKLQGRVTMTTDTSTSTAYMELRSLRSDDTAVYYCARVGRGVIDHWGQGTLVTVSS
VL: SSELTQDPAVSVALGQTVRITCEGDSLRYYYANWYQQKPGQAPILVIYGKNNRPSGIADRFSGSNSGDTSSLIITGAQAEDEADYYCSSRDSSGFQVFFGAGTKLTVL

Positions count from residue 1 of the parent VL; L27Y puts Y in place of L.
Values are log10 of the apparent Kd in nM; lower means stronger binding.
"nd" means that the variant was in the library but no mating with the target was seen in that replicate; the authors take this as a sign of poor binding, and no number exists.
In this assay the parent's reference entry averaged 2.31; its copy inside this library read 2.25.
Background: pairings of library AAYL52 with three empty control strains gave a value in 28% of cases (median 3.91, 5th percentile 2.90). Values in that range, when seen in few replicates, are hard to tell from nonspecific mating. For each scFv, signals with the empty controls are counted beside the result, with their mean in brackets.

changes	log10 Kd (nM) by replicate	signal with controls
L27Y R28K S88F	nd nd nd	3 of 9 (3.45)
R53P R90L D91W	nd 4.19 3.41	4 of 9 (4.29)
G49M R53W S55E	nd nd nd	0 of 9
Y29E S88H Q96P	2.27 2.45 1.98	2 of 9 (3.57)
Y30V K50F N52E	3.87 2.91 3.30	4 of 9 (4.23)
D25N S26L Y29V	2.43 2.92 2.01	5 of 9 (3.70)
Y30V A32Q	3.73 2.69 1.97	5 of 9 (3.35)
G49S S92I V97G	4.38 4.20 nd	2 of 9 (3.91)
E23W D25F P54T	2.99 2.88 3.44	2 of 9 (4.64)
E23P P54E G94S	nd nd nd	1 of 9 (3.85)
N51E S55R Q96A	3.56 4.10 2.92	5 of 9 (3.88)
G24E N52D S55R	nd nd nd	1 of 9 (4.12)
N51M P54F D91E	nd 5.12 nd	1 of 9 (3.85)
L27N Y29G G49C	4.73 3.53 nd	5 of 9 (4.31)
E23V G49N R53A	4.00 4.10 3.13	4 of 9 (4.00)
S89C G94C	2.83 2.55 2.82	6 of 9 (4.60)
G24L P54I S88W	nd nd nd	0 of 9
N33L N51R S88M	4.87 nd nd	3 of 9 (4.14)
S26R N51P R53C	nd 4.93 nd	3 of 9 (3.67)
N51A D91F V97R	4.55 nd nd	1 of 9 (3.52)
S89R S93Y G94Q	3.83 4.62 4.44	4 of 9 (3.84)
N33Y S88G	nd 5.84 nd	3 of 9 (4.01)
Y29E S55G F95A	2.76 3.71 4.28	1 of 9 (4.09)
R53I S92G G94H	5.48 4.18 nd	2 of 9 (4.08)
F95T Q96E V97P	nd nd nd	1 of 9 (2.81)
Y29S Y30V Y31G	1.34 1.02 0.65	7 of 9 (3.97)
R28K P54R S93E	3.96 3.42 nd	2 of 9 (3.29)
G49Q S89Y S92I	nd nd nd	3 of 9 (4.22)
A32C G49A S89M	3.85 nd nd	4 of 9 (4.33)
N52A G94V	3.88 3.03 nd	3 of 9 (3.75)
Y29R Y31I P54N	5.23 3.00 nd	3 of 9 (3.87)
A32M N52W S89R	nd nd 4.56	3 of 9 (4.23)
L27D	3.24 3.79 nd	3 of 9 (3.58)
Y31I S55G Q96K	3.18 3.00 3.07	5 of 9 (3.69)
E23V S26W A32D	2.45 2.39 1.83	7 of 9 (3.68)
N33I N51Y S93W	5.60 4.75 nd	5 of 9 (4.19)
R53N P54I S93W	nd nd 4.73	0 of 9
S26G R53Q P54K	3.30 nd nd	0 of 9
Y31H R53A S88K	nd 5.68 nd	2 of 9 (4.02)
R28H N51P F98N	nd 5.89 nd	1 of 9 (4.36)
L27E K50M N51A	nd nd nd	4 of 9 (3.55)
Y30A N33E K50G	3.83 3.30 3.00	0 of 9
A32T Q96R	2.93 2.64 3.61	2 of 9 (3.89)
S26R K50D S88H	5.13 4.13 nd	4 of 9 (3.58)
L27Q S89P F95D	2.30 2.59 2.12	1 of 9 (3.56)
N52K R90P V97S	nd nd 4.03	5 of 9 (4.46)
D25C G49D R53A	nd 4.73 3.49	1 of 9 (4.94)
D25E N33Q S92W	3.92 5.25 nd	5 of 9 (3.73)
R28A S89M F98Q	3.00 nd nd	0 of 9
N51S S55K S92W	3.99 3.48 4.06	1 of 9 (4.29)
L27N	3.78 3.64 3.23	4 of 9 (4.00)
R28H R53F Q96N	nd 4.71 2.90	5 of 9 (4.37)

Extract of 3 entries:

{"changes": "L27N Y29G G49C", "log10 Kd (nM) by replicate": "4.73 3.53 nd", "signal with controls": "5 of 9 (4.31)"}
{"changes": "A32T Q96R", "log10 Kd (nM) by replicate": "2.93 2.64 3.61", "signal with controls": "2 of 9 (3.89)"}
{"changes": "Y30V A32Q", "log10 Kd (nM) by replicate": "3.73 2.69 1.97", "signal with controls": "5 of 9 (3.35)"}